The values below are quoted from earlier work in patent US20130144250A1, “IMPLANTABLE DRUG DELIVERY COMPOSITIONS AND METHODS OF TREATMENT THEREOF” (Endo Pharmaceuticals Solutions Inc., priority 2011, published 2013).

For this series the following is noted: oral dosage; cited from earlier work.

On to `Cc1nc2n(c(=O)c1CCN1CCC(c3noc4cc(F)ccc34)CC1)CCCC2` [Risperidone, 4-[2-[4-(6-fluorobenzo[d]isoxazol-3-yl)-1-piperidyl]ethyl]-3-methyl-2,6-diazabicyclo[4.4.0]deca-1,3-dien-5-one], for which the Bioavailability is listed as around 70%.
